Ki data for two compounds are collected here from ChEMBL document CHEMBL1134501, “Structure-activity studies for a novel series of bicyclic substituted hexahydrobenz[e]isoindole alpha1A adrenoceptor antagonists as potential agents for the symptomatic treatment of benign prostatic hyperplasia” (J Med Chem, 2001).

By UniProt entry, the sequences of proteins in these tests, tags left out.
UniProt P23944, whole entry: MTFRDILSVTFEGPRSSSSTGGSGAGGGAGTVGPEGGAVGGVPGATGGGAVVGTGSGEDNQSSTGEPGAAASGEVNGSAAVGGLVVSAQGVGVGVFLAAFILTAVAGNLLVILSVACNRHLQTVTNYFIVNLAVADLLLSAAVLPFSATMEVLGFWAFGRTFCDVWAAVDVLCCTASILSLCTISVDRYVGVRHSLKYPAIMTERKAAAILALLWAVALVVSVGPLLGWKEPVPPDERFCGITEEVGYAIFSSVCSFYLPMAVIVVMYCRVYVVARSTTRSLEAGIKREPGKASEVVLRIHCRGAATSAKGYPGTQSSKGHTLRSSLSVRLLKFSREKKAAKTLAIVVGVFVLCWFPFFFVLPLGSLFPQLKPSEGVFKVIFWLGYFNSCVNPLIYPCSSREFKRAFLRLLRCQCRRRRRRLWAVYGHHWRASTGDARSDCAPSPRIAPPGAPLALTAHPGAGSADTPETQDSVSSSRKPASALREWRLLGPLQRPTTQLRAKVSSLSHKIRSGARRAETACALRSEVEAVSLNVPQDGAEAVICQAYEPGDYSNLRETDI

Test [1] deals with Alpha-1D adrenergic receptor (Rattus norvegicus, UniProt P23944). Briefly: Binding affinity to rat alpha-1D adrenergic receptor expressed in LTK cells. The format is cell-based.
Test [2] has as its target T1, Alpha-1A adrenergic receptor (Rattus norvegicus, UniProt P43140).
T1 sequence (P43140 whole entry): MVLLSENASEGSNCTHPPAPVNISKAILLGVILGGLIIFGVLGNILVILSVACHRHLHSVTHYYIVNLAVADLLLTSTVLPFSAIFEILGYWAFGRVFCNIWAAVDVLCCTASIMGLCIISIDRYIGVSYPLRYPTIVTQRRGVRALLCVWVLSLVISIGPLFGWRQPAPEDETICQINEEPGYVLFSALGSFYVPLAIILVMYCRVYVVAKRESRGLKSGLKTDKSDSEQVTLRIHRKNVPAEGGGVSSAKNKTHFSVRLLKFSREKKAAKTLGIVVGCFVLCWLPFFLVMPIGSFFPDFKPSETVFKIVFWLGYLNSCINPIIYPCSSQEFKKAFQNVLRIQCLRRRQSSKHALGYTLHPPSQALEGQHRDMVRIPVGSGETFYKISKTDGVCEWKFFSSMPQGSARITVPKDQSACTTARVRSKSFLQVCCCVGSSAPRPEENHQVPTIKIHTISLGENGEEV
Kind of test: Binding affinity to alpha-1A adrenergic receptor in rat submaxillary gland. The format is tissue-based.

The structures appear in SMILES notation.

`COc1cccc2c1CC[C@H]1CN(CCn3c(=O)[nH]c4cc(Cl)ccc4c3=O)C[C@@H]21`: the Ki came out at 0.58 nM in test [1] and 0.57 nM in test [2].
Turning to `COc1cccc2c1CC[C@H]1CN(CCn3c(=O)[nH]c4ncccc4c3=O)C[C@@H]21`, the Ki in test [2] was 1.19 nM.

In general, Ki refers to a measure of affinity in units of concentration, obtained from inhibition or displacement. Low values mean higher affinity, high ones lower affinity.
